Source: patent US11535630B2, “Apelin receptor (APJ) agonists and uses thereof” (Research Triangle Institute, priority 2015, dated 2022)

Target: T1, apelin receptor (APJ) (Homo sapiens, UniProt P35414)
T1 sequence (P35414 1-380): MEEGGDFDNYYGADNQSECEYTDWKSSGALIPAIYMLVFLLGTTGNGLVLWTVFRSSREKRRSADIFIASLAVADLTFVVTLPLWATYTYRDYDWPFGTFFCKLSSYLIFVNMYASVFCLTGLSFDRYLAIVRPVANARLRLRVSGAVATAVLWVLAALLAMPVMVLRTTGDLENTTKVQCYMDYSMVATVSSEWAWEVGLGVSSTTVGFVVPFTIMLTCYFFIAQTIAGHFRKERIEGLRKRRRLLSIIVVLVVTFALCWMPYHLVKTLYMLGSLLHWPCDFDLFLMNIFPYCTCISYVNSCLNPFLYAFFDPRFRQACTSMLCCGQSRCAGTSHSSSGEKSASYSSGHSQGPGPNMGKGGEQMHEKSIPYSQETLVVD
Test: In vitro apelin agonist activity (methods of Giddings et al., Apelin-13 as positive control)
Format: cell-based
Details: read-out: EC50 (nM) Ave
Source text: Characterization of the Apelin Agonist Activity of the Compounds
1:39-47, the contents of which are hereby incorporated by reference in its entirety. Using the methods described in Giddings et al. and Apelin-13 as a positive control.

## COc1cccc(OC)c1-c1cc(C(=O)N[C@@H](CCC2CCCCC2)CC(=O)O)nn1C1CCCCC1 [compound 622, (3S)-5-cyclohexyl-3-{[1-cyclohexyl-5-(2,6-dimethoxyphenyl)-1H-pyrazol-3-yl]formamido}pentanoic acid]
  EC50: 380 nM
